Structures are written as SMILES.

This series deals with HGT-1 cells. The series is described as follows: Cell viability (MTT). The conditions noted are these: casein 10 µM, hydrolysates 10 µM, peptides 250 µM, probenecid 1 mM in KRHB or transfection reagents, 30 min or 72 h, relative to KRHB control = 100%.

On to `CCCN(CCC)S(=O)(=O)c1ccc(C(=O)O)cc1` [probenecid], for which the “cell viability compared to control” value was at least 97.5%.

These data come from publication PMC9501810, “Bitter Peptides YFYPEL, VAPFPEVF, and YQEPVLGPVRGPFPIIV, Released during Gastric Digestion of Casein, Stimulate Mechanisms of Gastric Acid Secretion via Bitter Taste Receptors TAS2R16 and TAS2R38” (Journal of Agricultural and Food Chemistry, 2022).
